Assay results taken from ChEMBL document CHEMBL5230145, “Bifunctional μ opioid and σ1 receptor ligands as novel analgesics with reduced side effects” (Eur J Med Chem, 2021).

Protein sequences, listed by entry. Tags and fused reporters are not part of them.
UniProt Q60492, whole entry, looked up: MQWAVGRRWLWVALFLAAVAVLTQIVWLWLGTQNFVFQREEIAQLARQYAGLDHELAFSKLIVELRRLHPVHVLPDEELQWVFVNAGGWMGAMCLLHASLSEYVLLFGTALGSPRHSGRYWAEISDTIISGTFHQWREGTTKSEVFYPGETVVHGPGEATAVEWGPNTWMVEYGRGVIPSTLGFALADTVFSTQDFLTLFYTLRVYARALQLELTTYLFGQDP

Molecular target: Sigma non-opioid intracellular receptor 1 (Cavia porcellus, UniProt Q60492)
Test: Displacement of [3H]pentazocine from guinea pig brain membrane sigma 1 receptor incubated for 120 mins

Structure (SMILES) | Ki [nM]
C[C@@H]1[C@@H]2Cc3ccc(O)cc3[C@]1(C)CCN2CCc1ccccc1 | 3.9
C[C@H]1[C@H]2Cc3ccc(O)cc3[C@@]1(C)CCN2CCc1ccccc1 | 61.7
